Patent US20240226319A1, “EGFR TARGETING FC ANTIGEN BINDING FRAGMENT-DRUG CONJUGATES” (MERCK PATENT GMBH, priority 2021, published 2024)

Columns and labels:
[1] = test system: EGFR positive cells (MDA-MB-468, A431); test: Cell proliferation assay, EGFR positive cells taken together; assay type: cell-based, human; details: span over MDA-MB-468 and A431, 4 days incubation
Description: Next, we evaluated selective cell killing capabilities of the Fcab-drug conjugates in an in vitro cell proliferation assay (FIG. 7). […] Human cancer cell lines were obtained from the American Type Culture Collection (EGFR positive: MDA MB 468, A431; EGFR negative: MCF 7) and maintained according to standard culture conditions (37° C., 5% CO2, 95% humidity). A431 and MCF 7 cells were cultured in DMEM high glucose medium supplemented with 10% fetal bovine serum (FBS), 2 mM L-glutamine and 1 mM sodium pyruvate. […] For sub-culturing, adherent grown cells were detached by adding 0.05% trypsin-EDTA, diluted with fresh medium and transferred into a new culturing flask. […] Test compounds were added using a D300e digital dispenser (Tecan). […] All wells were normalized to the maximum amount of Tween 20 added. Cell viability was determined after 4 d using Cell Titer Glo reagent (Promega) according to the manufacturer's instructions. Luminescence values were normalized to luminescence of non-treated cells and dose-response was fitted using the asymmetric (five parameter) fitting function of GraphPad Prism (GraphPad Software, Inc.) to derive IC50 values.

[2] = test system: EGFR positive (MDA MB 468 and A431) and EGFR negative (MCF 7) cells; test: Cellular binding analysis by flow cytometry; assay type: cell-based, human; details: 100 nM, 60 min at 4° C., AF488-labeled detection antibody
Description: Cells were incubated with 100 nM of Fcab/C IgG for 60 min at 4° C., washed twice with PBS-1% BSA, incubated for 30 min with 500 nM of AF488-labeled detection antibody (109-546-008, Jackson ImmunoResearch) at 4° C. in darkness, washed twice with PBS-1% BSA, and finally fluorescence intensity was measured applying an Attune NxT flow cytometer (Invitrogen™).

[3] = cited from earlier work

Substance | IC50 [1] | further results
C-Fab-MMAE | 0.78 to 0.99 nM | –
C-IgG-MMAE | 0.44 to 0.5 nM | –
C-IgG: Cetuximab modified with LC C-terminal (G4S)3-LPETGS sortase A recognition tag, SEQ ID No. 8 and 9 | – | cellular binding [2]: bind selectively EGFR expressing cells
Trastuzumab Fab: Fab fragment of Trastuzumab lacking the Fc portion, literature comparator | – | mouse terminal t1/2 [3]: 4.4 h
